Here are results for one compound from ChEMBL document CHEMBL5726273, “Cystathionine-γ-lyase (CSE) inhibitors” (2017).

By UniProt entry, the sequences of proteins in these tests, tags left out.
UniProt P32929, whole entry, looked up: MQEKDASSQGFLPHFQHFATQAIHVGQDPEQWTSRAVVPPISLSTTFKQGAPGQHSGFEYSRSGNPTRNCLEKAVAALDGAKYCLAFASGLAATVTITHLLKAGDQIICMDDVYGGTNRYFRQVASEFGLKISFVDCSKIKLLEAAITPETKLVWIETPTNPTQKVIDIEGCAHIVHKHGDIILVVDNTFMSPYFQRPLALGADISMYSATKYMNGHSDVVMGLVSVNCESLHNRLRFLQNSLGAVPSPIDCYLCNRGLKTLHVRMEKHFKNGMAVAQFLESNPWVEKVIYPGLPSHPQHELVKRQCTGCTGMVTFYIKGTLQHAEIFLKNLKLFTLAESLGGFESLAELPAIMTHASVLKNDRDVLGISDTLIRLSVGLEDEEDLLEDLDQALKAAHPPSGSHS

The test addresses Cystathionine gamma-lyase (Homo sapiens, UniProt P32929). Briefly: In Vitro Assay: Test compounds (from DMSO stock solutions) were added to (final concentrations) 20 ug/ml enzyme solution (human, mouse or rat recombinant CSE) plus 50 uM PLP in assay buffer (100 mM potassium phosphate pH 7.6) in 96 well plates in total volume of 190 ul. Plates were incubated for 30 minutes at room temperature before the addition of 10 ul of 200 mM (20× final in assay buffer) DL-Ho.

The term IC50 denotes the concentration needed to halve the response being measured.

For the compound `NN(CCCc1nnn[nH]1)c1nnn[nH]1`, the IC50 was at least 10 µM.
